# Test results taken from patent publication US9067908B2, “Polyphenolic bioprecursors” (RHODIA CHIMIE, priority 2005, dated 2015).
# Chains of the proteins cited; added tags and fusions are not shown. Residues count along the entry.
# UniProt P30122, 19-597: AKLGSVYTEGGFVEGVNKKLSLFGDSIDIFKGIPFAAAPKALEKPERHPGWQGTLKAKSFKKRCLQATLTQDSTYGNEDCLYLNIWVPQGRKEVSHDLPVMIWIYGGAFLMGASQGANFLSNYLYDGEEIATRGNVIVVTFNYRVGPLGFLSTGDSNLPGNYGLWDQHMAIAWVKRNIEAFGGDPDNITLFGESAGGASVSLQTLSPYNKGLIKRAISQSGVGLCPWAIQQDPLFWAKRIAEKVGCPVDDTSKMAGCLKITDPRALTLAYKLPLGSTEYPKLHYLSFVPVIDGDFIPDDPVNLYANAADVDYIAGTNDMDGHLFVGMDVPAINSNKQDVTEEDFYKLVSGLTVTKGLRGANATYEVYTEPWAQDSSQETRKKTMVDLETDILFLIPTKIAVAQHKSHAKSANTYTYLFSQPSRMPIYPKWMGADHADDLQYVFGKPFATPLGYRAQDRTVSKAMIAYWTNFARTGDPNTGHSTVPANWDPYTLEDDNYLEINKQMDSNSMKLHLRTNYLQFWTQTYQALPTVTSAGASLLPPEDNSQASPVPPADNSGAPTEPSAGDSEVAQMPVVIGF
# How the values were obtained:
# [1] = molecular target: cholesterol esterase of bovine pancreas (E.C. 3.1.1.13) (Bos taurus, UniProt P30122)
# [2] = tested on: Stratum corneum enzymatic extract; assay: Bio-hydrolysis with the cutaneous enzymes obtained by tape stripping
substance,measurement,setting,value
"(E)-4-(3,5-diacetoxystyryl)phenyl-2,5,7,8-tetramethyl-2-(4,8,12-trimethyltridecyl)-3,4-dihydro-2H-chromen-6-yl succinate [Res(Ac)2-succinate-Vit E]",Active substance(s) released by bio-hydrolyse: B,[1],Vitamin E
same,Active substance(s) released by bio-hydrolyse: Polyphenol (PP),[1],Resveratrol
same,Active substance(s) released by bio-hydrolyse: A,[2],Acetate
same,Active substance(s) released by bio-hydrolyse: Polyphenol (PP),[2],Res-succinate-Vit
same,Bio-hydrolysis Rate (%),"[2]; 35° C., bio-hydrolysis time 96 h",26%
